Experimental data taken from US20110112129A2, “Peripheral Phenolic Opioid Antagonist” (published 2011).

The chains behind the UniProt entries cited, without tags or fusion partners.
UniProt P35372, whole entry: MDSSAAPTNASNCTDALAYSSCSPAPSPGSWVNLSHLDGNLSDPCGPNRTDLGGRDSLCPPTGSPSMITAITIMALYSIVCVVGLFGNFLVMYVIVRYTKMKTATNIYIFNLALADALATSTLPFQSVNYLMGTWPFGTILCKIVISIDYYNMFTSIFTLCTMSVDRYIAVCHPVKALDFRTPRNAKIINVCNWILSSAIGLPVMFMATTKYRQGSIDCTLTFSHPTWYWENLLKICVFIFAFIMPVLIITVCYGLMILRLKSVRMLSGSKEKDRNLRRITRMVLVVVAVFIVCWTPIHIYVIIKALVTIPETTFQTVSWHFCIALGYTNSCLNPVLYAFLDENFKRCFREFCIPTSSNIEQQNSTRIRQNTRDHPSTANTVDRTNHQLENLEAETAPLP

Assays:
μ opioid receptor [1] = biological target: T1, μ opioid receptor (Homo sapiens, UniProt P35372); experiment: Cellular cAMP HTRF assay, antagonism of DAMGO at human μ opioid receptor expressed on CHO cells; conditions: read-out: IC50 for antagonizing the action of DAMGO (cAMP); 30 nM DAMGO; human μ opioid receptor on Chinese hamster ovary cells; cAMP by HTRF
μ opioid receptor [2] = biological target: T1, μ opioid receptor; experiment: μ opioid receptor binding (methods of Wang et al. 1994); conditions: read-out: IC50 of binding to the μ opioid receptor; N-MDPN prepared as described in Example 1

CO[C@]12CC[C@@]3(C[C@@H]1C(C)(C)O)[C@H]1Cc4ccc(O)c5c4[C@@]3(CC[N@+]1(C)CC1CC1)[C@H]2O5 showed an IC50 (μ opioid receptor [1]) of 310 nM and an IC50 (μ opioid receptor [2]) of 4.2 nM.
